# pIC50: −log10 of the molar value.
# Chains of the proteins cited; added tags and fusions are not shown.
# UniProt Q00975, whole entry, looked up: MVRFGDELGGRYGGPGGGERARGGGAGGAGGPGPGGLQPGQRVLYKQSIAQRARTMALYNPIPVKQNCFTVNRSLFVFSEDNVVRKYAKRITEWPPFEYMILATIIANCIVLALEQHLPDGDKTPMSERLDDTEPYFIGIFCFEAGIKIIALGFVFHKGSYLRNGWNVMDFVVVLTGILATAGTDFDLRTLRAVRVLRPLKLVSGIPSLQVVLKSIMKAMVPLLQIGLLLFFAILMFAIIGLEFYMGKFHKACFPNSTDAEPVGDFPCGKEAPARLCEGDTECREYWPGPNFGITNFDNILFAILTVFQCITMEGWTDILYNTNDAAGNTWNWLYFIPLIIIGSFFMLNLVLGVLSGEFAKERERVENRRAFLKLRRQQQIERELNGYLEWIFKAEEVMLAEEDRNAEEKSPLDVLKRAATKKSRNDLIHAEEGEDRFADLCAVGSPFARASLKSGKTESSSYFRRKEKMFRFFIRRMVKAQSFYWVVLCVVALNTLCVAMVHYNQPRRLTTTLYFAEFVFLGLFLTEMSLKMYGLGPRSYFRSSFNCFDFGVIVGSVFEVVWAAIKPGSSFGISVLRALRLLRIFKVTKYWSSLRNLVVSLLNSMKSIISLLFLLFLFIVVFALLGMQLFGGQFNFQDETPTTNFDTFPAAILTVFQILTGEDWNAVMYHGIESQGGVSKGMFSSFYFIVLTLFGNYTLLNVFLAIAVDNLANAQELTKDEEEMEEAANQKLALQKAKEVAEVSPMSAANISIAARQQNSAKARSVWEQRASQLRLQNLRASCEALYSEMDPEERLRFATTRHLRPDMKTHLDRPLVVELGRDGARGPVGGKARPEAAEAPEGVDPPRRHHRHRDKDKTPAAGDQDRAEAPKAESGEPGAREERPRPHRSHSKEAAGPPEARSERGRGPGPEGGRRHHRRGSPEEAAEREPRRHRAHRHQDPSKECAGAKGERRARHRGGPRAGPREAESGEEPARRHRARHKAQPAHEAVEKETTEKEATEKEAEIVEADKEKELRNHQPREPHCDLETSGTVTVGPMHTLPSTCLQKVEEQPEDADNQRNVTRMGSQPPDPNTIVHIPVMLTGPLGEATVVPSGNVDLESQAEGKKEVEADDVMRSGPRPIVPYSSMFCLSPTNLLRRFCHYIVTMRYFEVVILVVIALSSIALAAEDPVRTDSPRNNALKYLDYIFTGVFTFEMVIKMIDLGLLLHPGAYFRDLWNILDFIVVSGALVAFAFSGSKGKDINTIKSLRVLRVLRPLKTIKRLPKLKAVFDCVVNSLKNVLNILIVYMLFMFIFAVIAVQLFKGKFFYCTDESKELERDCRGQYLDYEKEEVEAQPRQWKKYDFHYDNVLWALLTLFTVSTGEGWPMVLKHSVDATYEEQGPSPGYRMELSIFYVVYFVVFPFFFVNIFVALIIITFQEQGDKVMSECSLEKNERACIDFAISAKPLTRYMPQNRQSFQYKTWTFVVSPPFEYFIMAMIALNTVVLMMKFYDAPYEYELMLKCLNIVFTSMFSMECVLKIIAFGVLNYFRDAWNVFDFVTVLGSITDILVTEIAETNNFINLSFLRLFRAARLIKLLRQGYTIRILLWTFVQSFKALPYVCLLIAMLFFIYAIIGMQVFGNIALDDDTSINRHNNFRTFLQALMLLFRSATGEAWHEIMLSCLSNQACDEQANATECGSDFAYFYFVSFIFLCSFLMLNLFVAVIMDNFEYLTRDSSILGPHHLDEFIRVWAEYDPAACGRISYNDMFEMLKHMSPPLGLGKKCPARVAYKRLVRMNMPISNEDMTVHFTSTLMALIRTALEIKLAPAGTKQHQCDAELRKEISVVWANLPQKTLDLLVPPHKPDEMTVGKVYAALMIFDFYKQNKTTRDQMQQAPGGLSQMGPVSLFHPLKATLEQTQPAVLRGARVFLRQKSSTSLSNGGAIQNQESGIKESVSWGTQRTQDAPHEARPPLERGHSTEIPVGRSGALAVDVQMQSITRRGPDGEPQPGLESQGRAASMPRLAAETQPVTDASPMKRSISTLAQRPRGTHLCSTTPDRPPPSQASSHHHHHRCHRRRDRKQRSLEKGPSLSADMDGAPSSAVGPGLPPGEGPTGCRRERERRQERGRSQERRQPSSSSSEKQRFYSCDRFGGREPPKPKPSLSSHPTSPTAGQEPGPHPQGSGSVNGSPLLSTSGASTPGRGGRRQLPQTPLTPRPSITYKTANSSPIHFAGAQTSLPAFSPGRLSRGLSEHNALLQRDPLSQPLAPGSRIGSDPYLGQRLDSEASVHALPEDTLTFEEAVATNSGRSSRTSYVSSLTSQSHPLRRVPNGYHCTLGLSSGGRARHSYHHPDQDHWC
# Target: human Cav2.2 (Homo sapiens, UniProt Q00975)
# Experiment: Assessment of calcium channel activity using FLIPR (Ca2+ influx in IMR32 cells)
# Format: cell-based
# Settings: IMR32 cells endogenously expressing human Cav2.2; 60 minute pre-incubation; 2 μM nifedipine; depolarized with 80 mM KCl, 5 mM CaCl2
smiles,measurement,value
O=C(CN1CCCC(c2ccccc2)(c2ccccc2)C1=O)N(c1ccc(C(F)(F)F)cc1)C1CCNCC1,pIC50,5.51

# From US8044069B2, “Compounds as calcium channel blockers” (Abbott Laboratories, priority 2008, dated 2011)
